{
  "source": "patent US20260151516A1",
  "about": "“NEW PET TRACER FOR IMAGING OF THE FUNCTIONAL HEPATIC RESERVE” (Medizinische Universität Innsbruck, priority 2022, published 2026)",
  "key": {"[1]": {"experiment": "Biodistribution studies incl. blocking experiments", "format": "in vivo", "settings": "healthy BALB/c mice", "description": "For biodistribution studies 6 week old female BALB/c mice (n=3) were injected with 0.1 nmol (100 μL, approx. 1 MBq) of labelled compound via the lateral tail vein and sacrificed after 10, 30, or 60 min by cervical dislocation. The mice were dissected, blood and organs (spleen, pancreas, stomach, intestine, liver, kidney, heart, lung, muscle, and bone) were weighed, and their activity measured in a γ-counter. For blocking experiments, mice were co-injected with 100 μL of a 277 mM Galactose/PBS solution. In case of [^68Ga]Ga-TRAP-GalNAc a 277 mM N-Acetylgalactose solution was used."}, "[2]": {"experiment": "Ligand stability in human blood serum (radio-HPLC)", "format": "in vitro ADME", "settings": "37° C.", "description": "Ligand stability in human blood serum (n=2) and PBS (n=1) was determined for different time points (2 min, 30 min, 60 min, 120 min). Therefore, approx. 5 MBq of radioligand was added to 1 mL of fresh human serum or PBS and incubated at 37° C. At each given time point 100 μL of the mixture were transferred to a 1.5 mL Eppendorf tube containing 100 μL of acetonitrile. The vial was vortexed and centrifuged for 2 min at 14,000 rpm before 100 μL of the supernatant were diluted with 200 μL of water and injected into analytical radio-HPLC. The PBS solution was directly injected into the radio-HPLC. Ligand stability was determined by integrating the areas of the signals in the radio chromatogram in relation to the signal of the intact ligand."}, "[3]": {"experiment": "Partition coefficient (log D), n-Octanol/PBS", "format": "physicochemical", "description": "The vials were vortexed for 5 min at 1,500 rpm and then centrifuged for 5 min at 20,000 rcf (Eppendorf Centrifuge 5424). Aliquots of 100 μL were taken out of each phase and the amount of activity was quantified in a γ-counter (Perkin Elmer 2480 Wizard2 3″; Waltham, Massachusetts, USA)."}, "[4]": {"target": "T1, Recombinant human ASGR1 (Homo sapiens, UniProt P07306)", "T1 construct": "His tag (inferred from immobilisation on Ni-coated plates)", "T1 sequence (P07306 1-291)": "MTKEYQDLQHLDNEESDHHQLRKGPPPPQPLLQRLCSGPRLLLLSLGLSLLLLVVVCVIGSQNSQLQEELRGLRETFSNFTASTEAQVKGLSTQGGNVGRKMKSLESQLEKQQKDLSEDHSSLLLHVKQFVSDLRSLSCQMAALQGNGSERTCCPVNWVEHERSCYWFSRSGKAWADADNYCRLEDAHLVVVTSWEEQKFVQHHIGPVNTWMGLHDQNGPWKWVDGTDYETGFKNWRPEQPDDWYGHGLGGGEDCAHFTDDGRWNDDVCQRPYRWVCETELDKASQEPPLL", "experiment": "In vitro binding study, isolated receptor-based assay against ^125I-Asialoorosomucoid", "settings": "recombinant human ASGR1, ^125I-Asialoorosomucoid 50 nM, n = 3; method used [^natGa]Ga-NODAGA-TriGalactan", "description": "Inhibitory constant (IC50) values were determined in triplicates using an isolated receptor-based assay as described in literature (Eggink L L et al. J Immunother Cancer 2018; 6:28). Recombinant human ASGR1 was seeded out into Ni-coated 96 well plates (Pierce, Thermo Fisher) in PBS at a concentration of 2 μg/mL for at least 2 h at room temperature under mild agitation (200 1/min). Unbound receptor was removed by washing the wells twice with binding buffer (25 mM Tris×HCl, 150 mM NaCl, 0.05% TWEEN 20, pH=7.4). Next 140 μL of binding buffer as well as 20 μL of a 19 mM CaCl2-solution were added to the wells followed by addition of either 20 μL of PBS (control) or 20 μL of [^natGa]Ga-NODAGA-TriGalactan in PBS. Final ligand concentrations were ranging from 10^−5-10^−11 M. Lastly 20 μL of ^125I-Asialoorosomucoid (50 nM, 2.4 kBq per well) were added and the plate was incubated for 1 hour at room temperature under mild agitation (200 rpm). Supernatants were removed and the wells washed twice with 200 μL of PBS before receptor bound activity was released by addition of 200 μL of hot (60° C.) 1 M NaOH. Wells were incubated with NaOH for 10 min. Lysates were removed and the wells washed again twice with 200 μL of hot NaOH. The activity content in the lysates was quantified in a γ-counter and the values plotted in excel. […]"}},
  "note": "pIC50: −log10 of the molar value. Several values for one entry are separate records, joined by “and”; a condition that tells them apart may be missing. Identical values can stand only once. Marks after values point to notes of the source that are not given here.",
  "data": [
    {"molecule": "O=C(CCP(=O)([O-])CN1CCN(CP(=O)([O-])CCC(=O)NCc2cn(CCOCCOCCO[C@@H]3O[C@H](CO)[C@H](O)[C@H](O)[C@H]3O)nn2)CCN(CP(=O)([O-])CCC(=O)NCc2cn(CCOCCOCCO[C@@H]3O[C@H](CO)[C@H](O)[C@H](O)[C@H]3O)nn2)CC1)NCc1cn(CCOCCOCCO[C@@H]2O[C@H](CO)[C@H](O)[C@H](O)[C@H]2O)nn1.[68Ga+3]", "note": "[[^68Ga]Ga-TRAP-Galactan]", "values": [
      {"measurement": "Liver-to-organ ratio Stomach", "setting": "[1]; 30 min p.i.", "result": "31.8 ± 7.8"}
    ]},
    {"molecule": "O=C(CCP(=O)([O-])CN1CCN(CP(=O)([O-])CCC(=O)NCc2cn(CCOCCOCCO[C@@H]3O[C@H](CO)[C@@H](O)[C@H](O)[C@H]3O)nn2)CCN(CP(=O)([O-])CCC(=O)NCc2cn(CCOCCOCCO[C@@H]3O[C@H](CO)[C@@H](O)[C@H](O)[C@H]3O)nn2)CC1)NCc1cn(CCOCCOCCO[C@@H]2O[C@H](CO)[C@@H](O)[C@H](O)[C@H]2O)nn1.[68Ga+3]", "note": "[[^68Ga]Ga-TRAP-Gluco, reference compound]", "values": [
      {"measurement": "Biodistribution Heart", "setting": "[1]; 10 min p.i.", "result": "1.54 ± 0.11", "unit": "% ID/g"}
    ]},
    {"molecule": "O=C(O)CN1CCN(CC(=O)O)CCN([C@H](CCC(=O)NCCCC(=O)NC(COCc2cn(CCOCCOCCO[C@@H]3O[C@H](CO)[C@H](O)[C@H](O)[C@H]3O)nn2)(COCc2cn(CCOCCOCCO[C@@H]3O[C@H](CO)[C@H](O)[C@H](O)[C@H]3O)nn2)COCc2cn(CCOCCOCCO[C@@H]3O[C@H](CO)[C@H](O)[C@H](O)[C@H]3O)nn2)C(=O)O)CC1", "note": "[[^68Ga]Ga-NODAGA-TriGalactan, metal not drawn]", "values": [
      {"measurement": "Biodistribution Heart", "setting": "[1]; 10 min p.i.", "result": "1.18 ± 0.08", "unit": "% ID/g"},
      {"measurement": "Biodistribution Stomach", "setting": "[1]; 10 min p.i.", "result": "1.42 ± 0.23", "unit": "% ID/g"}
    ]},
    {"molecule": "O=C(CCP(=O)([O-])CN1CCN(CP(=O)([O-])CCC(=O)NCc2cn([C@@H]3O[C@H](CO)[C@H](O)[C@H](O)[C@H]3O)nn2)CCN(CP(=O)([O-])CCC(=O)NCc2cn([C@@H]3O[C@H](CO)[C@H](O)[C@H](O)[C@H]3O)nn2)CC1)NCc1cn([C@@H]2O[C@H](CO)[C@H](O)[C@H](O)[C@H]2O)nn1.[68Ga+3]", "note": "[[^68Ga]Ga-Galacto-TRAP]", "values": [
      {"measurement": "Biodistribution Muscle", "setting": "[1]; 30 min p.i.", "result": "1.42 ± 0.21", "unit": "% ID/g"}
    ]},
    {"molecule": "[^99mTc]Tc-diethylenetriamine-pentaacetic acid galactosyl human serum albumin [[^99mTc]Tc-GSA, reference compound]", "values": [
      {"measurement": "Serum stability (% of intact ligand)", "setting": "[2]; 2 min", "result": "82 ^[x] %"},
      {"measurement": "Serum stability (% of intact ligand)", "setting": "[2]; 30 min", "result": "76 ^[x] %"},
      {"measurement": "Serum stability (% of intact ligand)", "setting": "[2]; 60 min", "result": "70 ^[x] %"},
      {"measurement": "Serum stability (% of intact ligand)", "setting": "[2]; 120 min", "result": "65 ^[x] %"},
      {"measurement": "logD", "setting": "[3]", "result": "−1.88±0.02"},
      {"measurement": "pIC50", "setting": "[4]", "result": 7.14},
      {"measurement": "Biodistribution Blood", "setting": "[1]; 10 min p.i.", "result": "3.13 ± 0.15", "unit": "% ID/g"},
      {"measurement": "Biodistribution Femur", "setting": "[1]; 10 min p.i.", "result": "1.54 ± 0.18", "unit": "% ID/g"},
      {"measurement": "Biodistribution Heart", "setting": "[1]; 10 min p.i.", "result": "1.47 ± 0.07", "unit": "% ID/g"},
      {"measurement": "Biodistribution Intestine", "setting": "[1]; 10 min p.i.", "result": "1.10 ± 0.05", "unit": "% ID/g"},
      {"measurement": "Biodistribution Kidneys", "setting": "[1]; 10 min p.i.", "result": "7.35 ± 0.51", "unit": "% ID/g"},
      {"measurement": "Biodistribution Liver", "setting": "[1]; 10 min p.i.", "result": "58.1±6.7 % ID/g and 58.1 ± 6.68 % ID/g"},
      {"measurement": "Biodistribution Lung", "setting": "[1]; 10 min p.i.", "result": "2.04 ± 0.11", "unit": "% ID/g"},
      {"measurement": "Biodistribution Muscle", "setting": "[1]; 10 min p.i.", "result": "0.60 ± 0.04", "unit": "% ID/g"},
      {"measurement": "Biodistribution Pancreas", "setting": "[1]; 10 min p.i.", "result": "0.64 ± 0.02", "unit": "% ID/g"},
      {"measurement": "Biodistribution Spleen", "setting": "[1]; 10 min p.i.", "result": "1.37 ± 0.16", "unit": "% ID/g"},
      {"measurement": "Biodistribution Stomach", "setting": "[1]; 10 min p.i.", "result": "0.91 ± 0.01", "unit": "% ID/g"},
      {"measurement": "Biodistribution Blood", "setting": "[1]; 30 min p.i.", "result": "2.76 ± 0.57", "unit": "% ID/g"},
      {"measurement": "Biodistribution Femur", "setting": "[1]; 30 min p.i.", "result": "3.64 ± 1.98", "unit": "% ID/g"},
      {"measurement": "Biodistribution Heart", "setting": "[1]; 30 min p.i.", "result": "1.08 ± 0.16", "unit": "% ID/g"},
      {"measurement": "Biodistribution Intestine", "setting": "[1]; 30 min p.i.", "result": "6.41 ± 1.05", "unit": "% ID/g"},
      {"measurement": "Biodistribution Kidneys", "setting": "[1]; 30 min p.i.", "result": "10.5 ± 2.00", "unit": "% ID/g"},
      {"measurement": "Biodistribution Liver", "setting": "[1]; 30 min p.i.", "result": "51.3 ± 2.78", "unit": "% ID/g"},
      {"measurement": "Biodistribution Lung", "setting": "[1]; 30 min p.i.", "result": "1.64 ± 0.20", "unit": "% ID/g"},
      {"measurement": "Biodistribution Muscle", "setting": "[1]; 30 min p.i.", "result": "0.45 ± 0.06", "unit": "% ID/g"},
      {"measurement": "Biodistribution Pancreas", "setting": "[1]; 30 min p.i.", "result": "0.48 ± 0.07", "unit": "% ID/g"},
      {"measurement": "Biodistribution Spleen", "setting": "[1]; 30 min p.i.", "result": "1.42 ± 0.39", "unit": "% ID/g"},
      {"measurement": "Biodistribution Stomach", "setting": "[1]; 30 min p.i.", "result": "1.61 ± 0.20", "unit": "% ID/g"},
      {"measurement": "Biodistribution Blood", "setting": "[1]; 60 min p.i.", "result": "1.98 ± 0.10", "unit": "% ID/g"},
      {"measurement": "Biodistribution Femur", "setting": "[1]; 60 min p.i.", "result": "2.48 ± 0.48", "unit": "% ID/g"},
      {"measurement": "Biodistribution Heart", "setting": "[1]; 60 min p.i.", "result": "0.81 ± 0.07", "unit": "% ID/g"},
      {"measurement": "Biodistribution Intestine", "setting": "[1]; 60 min p.i.", "result": "9.8±1.6 % ID/g and 9.80 ± 1.61 % ID/g"},
      {"measurement": "Biodistribution Kidneys", "setting": "[1]; 60 min p.i.", "result": "9.21 ± 0.21", "unit": "% ID/g"},
      {"measurement": "Biodistribution Liver", "setting": "[1]; 60 min p.i.", "result": "46.3±5.9 % ID/g and 46.3 ± 5.88 % ID/g"},
      {"measurement": "Biodistribution Lung", "setting": "[1]; 60 min p.i.", "result": "1.38 ± 0.11", "unit": "% ID/g"},
      {"measurement": "Biodistribution Muscle", "setting": "[1]; 60 min p.i.", "result": "0.39 ± 0.00", "unit": "% ID/g"},
      {"measurement": "Biodistribution Spleen", "setting": "[1]; 60 min p.i.", "result": "1.18 ± 0.20", "unit": "% ID/g"},
      {"measurement": "Biodistribution Stomach", "setting": "[1]; 60 min p.i.", "result": "2.43 ± 1.45", "unit": "% ID/g"}
    ]}
  ]
}
